B1: Tumor necrosis factor receptor superfamily member 5 (Homo sapiens), P25942 (parent)
chain: MVRLPLQCVLWGCLLTAVHPEPPTACREKQYLINSQCCSLCQPGQKLVSDCTEFTETECLPCGESEFLDTWNRETHCHQHKYCDPNLGLRVQQKGTSETDTICTCEEGWHCTSEACESCVLHRSCSPGFGVKQIATGVSDTICEPCPVGFFSNVSSAFEKCHPWTSCETKDLVVQQAGTNKTDVVCGPQDRLRALVVIPIIFGILFAILLVLVFIKKVAKKPTNKAPHPKQEPQEINFPDDLPGSNTAAPVQETLHGCQPVTQEDGKESRISVQERQ
partner: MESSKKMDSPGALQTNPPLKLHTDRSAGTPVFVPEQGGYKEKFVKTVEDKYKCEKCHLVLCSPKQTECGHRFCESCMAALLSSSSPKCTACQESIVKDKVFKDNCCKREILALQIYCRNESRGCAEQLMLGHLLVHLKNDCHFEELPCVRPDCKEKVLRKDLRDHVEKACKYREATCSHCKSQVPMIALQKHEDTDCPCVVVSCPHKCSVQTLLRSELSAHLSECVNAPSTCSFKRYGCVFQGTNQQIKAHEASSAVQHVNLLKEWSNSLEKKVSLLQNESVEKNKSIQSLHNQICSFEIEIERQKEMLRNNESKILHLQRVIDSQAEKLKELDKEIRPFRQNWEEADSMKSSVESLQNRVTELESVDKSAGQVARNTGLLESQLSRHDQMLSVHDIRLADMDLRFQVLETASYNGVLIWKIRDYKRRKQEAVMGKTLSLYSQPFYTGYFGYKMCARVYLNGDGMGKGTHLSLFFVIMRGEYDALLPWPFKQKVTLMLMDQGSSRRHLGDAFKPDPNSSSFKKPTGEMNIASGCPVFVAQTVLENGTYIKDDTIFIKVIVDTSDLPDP

Variants of: B1
Conditions: with traf3_human TRAF3, Q13114

effect of a mutation on the interaction	Variant
decreasing interaction	MVRLPLQCVLWGCLLTAVHPEPPTACREKQYLINSQCCSLCQPGQKLVSDCTEFTETECLPCGESEFLDTWNRETHCHQHKYCDPNLGLRVQQKGTSETDTICTCEEGWHCTSEACESCVLHRSCSPGFGVKQIATGVSDTICEPCPVGFFSNVSSAFEKCHPWTSCETKDLVVQQAGTNKTDVVCGPQDRLRALVVIPIIFGILFAILLVLVFIKKVAKKPTNKAPHPKQEPQEINFPDDLPGSNTAAPVQEALHGCQPVTQEDGKESRISVQERQ [T254A]

Source: IntAct's records for PubMed 7527023
